## Yeast mating assay 2: variants of the scFv Ab-95

Source: Engelhart et al. 2022 (doi:10.1038/s41597-022-01779-4), MIT Lincoln Laboratory and A-Alpha Bio; data file from the FLAb repository.

All variants were tested on one target, the spike HR2 peptide PDVDLGDISGINAS (SARS-CoV-2).

The variants keep the heavy chain, the linker and the frameworks of Ab-95 (scFv order VH, the linker GGGGSGGGGSGGGGS, VL).
VH: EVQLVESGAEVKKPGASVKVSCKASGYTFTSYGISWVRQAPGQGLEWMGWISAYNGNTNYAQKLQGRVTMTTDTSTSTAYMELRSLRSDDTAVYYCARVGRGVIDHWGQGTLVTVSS
VL: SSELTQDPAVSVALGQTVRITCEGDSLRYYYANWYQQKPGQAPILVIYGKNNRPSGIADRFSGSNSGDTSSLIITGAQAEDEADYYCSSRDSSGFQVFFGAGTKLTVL

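The starting antibody came from a phage panning campaign against this peptide. Variants in AAYL52 differ from the parent at up to three CDR positions; double and triple changes were sampled at random. In AlphaSeq, yeast of one mating type display the scFv and yeast of the other type display the target. Pairs that bind mate more often; barcode pairs of the diploids are counted by sequencing. A regression on co-assayed BCL2-family reference pairs converts the normalised counts of each replicate to an apparent Kd. There are three technical replicates.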

Variants are written as CDR1, CDR2 and CDR3 of the light chain (limits as in the source). Parent: EGDSLRYYYAN, GKNNRPS, SSRDSSGFQVF.
Values are log10 of the apparent Kd in nM; lower means stronger binding.
Replicates are averaged; those with no signal do not enter the mean.
"ND" marks a missing value. The strain was present, yet no cells mated with the target were sequenced in that replicate, which points to weak or no binding.
As a blank, each scFv also met three strains without target: over library AAYL52, 28% of these pairings were detected, typically at 3.91 and seldom below 2.90. Also given: how often the same scFv was detected with the empty control strains, with their mean in brackets.

| CDR-L1 | CDR-L2 | CDR-L3 | log10 Kd, replicates | mean, log10 nM | empty controls |
|---|---|---|---|---|---|
| EGDALRYYYAN | GKNNRPS | HSRDSSYFQVF | 3.47 3.19 4.08 | 3.58 | 5/9 (4.42) |
| EGDSLRYYYAN | GKNNRYS | SSRDSSGFVVF | 4.36 4.21 3.80 | 4.12 | 3/9 (3.56) |
| EGDSLFKYYYN | GKNNRPS | SSRDSSGFQVF | 3.63 ND ND | 3.63 | 0/9 |
| EGKSLRYYYAN | GKNNRPS | SSRESKGFQVF | 3.18 3.14 3.65 | 3.32 | 4/9 (3.87) |
| EGDSLRHYHAN | GKNNRPS | SSRDSSGFQVF | 1.64 1.62 1.37 | 1.54 | 6/9 (3.95) |
| EGDSKRYYYAN | GKQNRPS | SSKDSSGFQVF | 3.64 ND ND | 3.64 | 2/9 (3.71) |
| GGDSLRYYYAN | DKNNRPS | SSRFSSGFQVF | 3.84 ND ND | 3.84 | 2/9 (4.49) |
| EGDSERYYYAN | GKNNRPS | EPRDSSGFQVF | ND ND ND | ND | 0/9 |
| EGDSLRYYYAN | GKNNRPH | TSRDSSCFQVF | 4.49 6.09 ND | 5.29 | 4/9 (4.51) |
| EGYSLRYYYAN | GKNNRPS | SSRDSSTFQVC | 3.71 ND ND | 3.71 | 5/9 (4.54) |
| EGDSLRYYYAN | AKDRRPS | SSRDSSGFQVF | 3.16 3.12 3.25 | 3.18 | 6/9 (3.64) |
| EGDSLRYCYAN | KKNNRPS | SSRDSSGFQVF | 3.17 4.03 3.99 | 3.73 | 3/9 (4.11) |
| EGDSLTYYYAN | GKNNRPP | SARDSSGFQVF | 2.43 2.19 2.19 | 2.27 | 4/9 (4.05) |
| EPDWLRYYYAN | GKNNRPP | SSRDSSGFQVF | 4.59 4.44 4.25 | 4.43 | 4/9 (4.20) |
| EGDSLRYYYAN | KKNNRPK | SSRDSSGFQWF | ND ND ND | ND | 1/9 (4.80) |
| EGDSLSYYYAN | GKNNRPS | YSRDSSGFQEF | 3.74 3.51 ND | 3.62 | 2/9 (3.01) |
| EGDSLAEYYAN | GKNNRPS | SSRDSSGFQKF | ND 3.70 ND | 3.70 | 1/9 (4.85) |
| EGDSLRYYYAN | GYNNRPS | SSRDSSGFTWF | ND ND ND | ND | 1/9 (3.86) |
| QGDSLRYYYAK | GKNNRPS | SSRDSSGFGVF | ND 3.12 ND | 3.12 | 3/9 (3.30) |
| EGDSLWYYYAN | GKGNRPT | SSRDSSGFQVF | ND 4.34 ND | 4.34 | 0/9 |
| EGDSLRYVMAN | GKNNRPS | SSRDHSGFQVF | 1.98 2.09 1.92 | 2.00 | 1/9 (2.87) |
| EGDSLRYYYIN | GKNNRPS | SSRRSSGFQVF | 5.09 4.24 ND | 4.67 | 1/9 (4.23) |
| ERDSLRYYYAN | GKNWRPS | SSRDSSGFQVL | ND ND ND | ND | 4/9 (3.46) |
| EGDSLRYYYAN | GKNNRPS | SSRISSGFTVF | 3.41 2.80 2.91 | 3.04 | 7/9 (3.96) |
| EGDSMRYYYAL | GQNNRPS | SSRDSSGFQVF | 4.10 ND ND | 4.10 | 3/9 (4.66) |
| EGDSLRYYYAM | GKNNRPS | SSWDSSGFQVF | ND ND ND | ND | 3/9 (4.13) |
| LMDSLRYYIAN | GKNNRPS | SSRDSSGFQVF | 3.04 3.68 2.89 | 3.20 | 4/9 (4.21) |
| EGDSLRYYHAN | LKNNRPS | SSRDSSGFHVF | ND 3.88 ND | 3.88 | 4/9 (3.89) |
| EGDSLRVYQAN | GKNNRPS | SSRDSFGFQVF | 3.04 4.44 4.42 | 3.97 | 0/9 |
| EGDSLHYYYAN | GKNNDPH | SSRDSSGFQVF | ND 3.07 2.57 | 2.82 | 0/9 |
| EGDSLRYMYTY | GKNNRPS | SSRDSSGFQVF | 3.71 ND ND | 3.71 | 2/9 (3.35) |
| EGDSLRYYYAN | GKNFRPS | SSRDSSGAQVF | 2.88 2.30 3.09 | 2.76 | 1/9 (3.80) |
| EGDSLRYYYAN | GKNNRPL | LSRDSGGFQVF | 3.67 5.11 ND | 4.39 | 4/9 (3.77) |
| EGDSLRYYYAN | GKNNRPS | SSHDSSGGQVQ | 2.44 2.58 2.16 | 2.40 | 3/9 (3.36) |
| EGDSLPYYYAN | GDNNRPS | SSRDSSGHQVF | 2.45 2.28 2.06 | 2.27 | 4/9 (4.22) |
| EGDSLRYYYAN | GLNNRPS | SERSSSGFQVF | 3.16 3.73 2.64 | 3.18 | 2/9 (3.72) |
| EKDSFRYYYAN | GKNNRPS | SSRDSSGFQMF | ND ND ND | ND | 1/9 (3.24) |
| EGDSLRGYYAL | GKNNRPS | SSRDSSGFDVF | ND ND ND | ND | 0/9 |
| EGDCLSYYYAN | GKNNRPS | SSRDSSGFQVF | 4.02 4.64 ND | 4.33 | 2/9 (3.87) |
| EGDSLRVYYAN | GKTNRPS | SSRDSSGFIVF | 2.98 5.60 ND | 4.29 | 5/9 (4.34) |
| IGDSLRYYYAN | GKNNRPS | SSRDSSGFDVF | 5.13 3.67 2.71 | 3.84 | 4/9 (4.02) |
| EGDSLRYYPAN | GKNNRPS | SSRDSSTAQVF | ND 3.83 ND | 3.83 | 2/9 (4.54) |
| RIDSLRYYYAN | GKNNRPS | SSLDSSGFQVF | 4.07 3.58 2.72 | 3.46 | 2/9 (3.48) |
| EGDSLRYYYAQ | GKNNRPS | KSYDSSGFQVF | ND 3.85 3.58 | 3.72 | 1/9 (3.57) |
| EGDVLGYYYAN | GKQNRPS | SSRDSSGFQVF | 4.04 5.47 3.74 | 4.41 | 2/9 (3.95) |
| EGDHLRYYYAN | GKNNWPS | SSRDSSEFQVF | ND ND ND | ND | 2/9 (4.41) |
| EGDSLRYYYAN | GHNSRPS | SSRDSSWFQVF | 2.23 2.88 2.49 | 2.53 | 2/9 (4.22) |

Repeated from above, the 5 best binders with a signal in all replicates:

CDR-L1	CDR-L2	CDR-L3	log10 Kd, replicates	mean, log10 nM	empty controls
EGDSLRHYHAN	GKNNRPS	SSRDSSGFQVF	1.64 1.62 1.37	1.54	6/9 (3.95)
EGDSLRYVMAN	GKNNRPS	SSRDHSGFQVF	1.98 2.09 1.92	2.00	1/9 (2.87)
EGDSLPYYYAN	GDNNRPS	SSRDSSGHQVF	2.45 2.28 2.06	2.27	4/9 (4.22)
EGDSLTYYYAN	GKNNRPP	SARDSSGFQVF	2.43 2.19 2.19	2.27	4/9 (4.05)
EGDSLRYYYAN	GKNNRPS	SSHDSSGGQVQ	2.44 2.58 2.16	2.40	3/9 (3.36)